Our source for the inhibition (reported as % activation of signal) values is PubChem BioAssay AID588458 (Sanford-Burnham Center for Chemical Genomics, 2011).

Sequences of proteins named here, by UniProt entry; tags and fusion partners are left off. Residues count along the entry.
UniProt P26358, 504-1616 limits assumed: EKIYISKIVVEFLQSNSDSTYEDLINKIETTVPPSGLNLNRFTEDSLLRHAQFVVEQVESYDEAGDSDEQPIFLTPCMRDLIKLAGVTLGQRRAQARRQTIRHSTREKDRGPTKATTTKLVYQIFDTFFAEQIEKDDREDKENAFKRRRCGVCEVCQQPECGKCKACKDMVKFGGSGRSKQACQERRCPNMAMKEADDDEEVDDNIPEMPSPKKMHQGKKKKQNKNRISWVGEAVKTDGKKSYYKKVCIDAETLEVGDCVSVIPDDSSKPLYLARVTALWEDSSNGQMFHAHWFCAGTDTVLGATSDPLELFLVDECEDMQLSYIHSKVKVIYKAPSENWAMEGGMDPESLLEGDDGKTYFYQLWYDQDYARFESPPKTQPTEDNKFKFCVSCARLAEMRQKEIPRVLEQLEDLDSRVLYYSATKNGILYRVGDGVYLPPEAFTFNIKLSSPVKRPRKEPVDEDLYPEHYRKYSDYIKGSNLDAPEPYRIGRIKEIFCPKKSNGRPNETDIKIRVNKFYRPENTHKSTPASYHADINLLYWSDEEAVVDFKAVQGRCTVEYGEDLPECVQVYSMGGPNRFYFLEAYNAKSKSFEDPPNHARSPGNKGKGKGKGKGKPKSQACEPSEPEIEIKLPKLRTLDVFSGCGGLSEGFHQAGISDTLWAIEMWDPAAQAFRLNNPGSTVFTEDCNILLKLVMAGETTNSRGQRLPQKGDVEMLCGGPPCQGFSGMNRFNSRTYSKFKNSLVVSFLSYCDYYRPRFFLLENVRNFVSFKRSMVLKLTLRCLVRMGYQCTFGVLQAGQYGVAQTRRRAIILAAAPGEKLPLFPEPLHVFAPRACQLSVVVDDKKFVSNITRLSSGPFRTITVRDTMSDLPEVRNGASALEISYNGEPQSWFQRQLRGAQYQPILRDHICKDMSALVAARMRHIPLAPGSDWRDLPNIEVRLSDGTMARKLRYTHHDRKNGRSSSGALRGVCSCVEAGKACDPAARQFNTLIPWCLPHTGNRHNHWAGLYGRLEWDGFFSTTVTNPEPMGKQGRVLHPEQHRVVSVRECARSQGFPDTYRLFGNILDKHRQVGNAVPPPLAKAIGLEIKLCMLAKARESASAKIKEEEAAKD

SMILES strings stand for the structures. The list shows a part of the results, in another mix than the full data. Calls of active or inactive are those of the source. Cut-off read from the data, not from the text of the source: active = inhibition above about 50%; inactive = the rest.

This assay has as its target DNA (cytosine-5)-methyltransferase 1 (Homo sapiens) (UniProt P26358). Put plainly: human DNMT1 methyltransferase inhibitors, primary screen, biochemical, molecular beacon, fluorescence, HinP1I cleavage, uHTS (AID 588458). The settings on record: at 10 µM, stronger effect = higher value.
In the case of `CCCCn1nnnc1C(c1cc2ccccc2o1)N1CCC(n2c(=O)[nH]c3ccccc32)CC1` (stereo not given), the inhibition (reported as % activation of signal) is inactive: 48.1%.
For the compound `O=P1(N(CCCl)CCCl)SCCCS1`, the inhibition (reported as % activation of signal) was inactive: 0.22%.
With `CCCCOc1ccc(C(=O)NCC2(N3CCOCC3)CCCCC2)cc1`, the inhibition (reported as % activation of signal) is inactive: 1.58%.
As for `COc1ccc(NC2CCN(CCc3ccccc3)CC2)c(OC)c1`, the inhibition (reported as % activation of signal) was inactive: -6.27%.
Consider `CCOC(=O)N1CCC(Nc2ccc(F)cc2)CC1`, for which the inhibition (reported as % activation of signal) was inactive: -0.05%.
Turning to `CCOc1ccc(C)cc1CN(CCCl)CCCl`, the inhibition (reported as % activation of signal) was inactive: -21.7%.
Regarding `CC(C)(C)n1nnnc1C(c1ccccc1)N1CCC(n2c(=O)[nH]c3ccccc32)CC1` (stereo not given), the inhibition (reported as % activation of signal) was inactive: 2.21%.
As for `O=C1CCN(Cc2ccccc2)CC1`, the figure is inactive: -5.45%.
Regarding `CCCCn1nnnc1C(c1cccc2ccccc12)N1CCC(n2c(=O)[nH]c3ccccc32)CC1` (stereo not given), the inhibition (reported as % activation of signal) was inactive: -25.2%.
Turning to `CN1CCN(CCOC(=O)C(O)(c2ccccc2)c2ccccc2)CC1`, the inhibition (reported as % activation of signal) was inactive: 0.9%.
Take `CC(C)c1ccc(C(=O)NCC2(N3CCOCC3)CCCCC2)cc1`: the inhibition (reported as % activation of signal) was inactive: 1.73%.
For the compound `COc1ccc(NC2CCN(C(=O)OC(C)(C)C)CC2)cc1`, the inhibition (reported as % activation of signal) is inactive: 1.71%.
`COc1cc(C(=O)NCC2(N3CCCCC3)CCCCC2)ccc1OC(F)F`: the inhibition (reported as % activation of signal) was inactive: -2.81%.
For `O=C(NCC1(N2CCOCC2)CCCCC1)c1cc(=O)[nH]c2ccccc12` the value was inactive: 2.4%.
As for `O=C(NCC1(N2CCCCC2)CCCCC1)c1cccc(C(F)(F)F)c1`, the figure is inactive: -0.84%; as for `O=C(NCC1(N2CCCCC2)CCCCC1)c1cccc([N+](=O)[O-])c1`, inactive: 3.17%.
In the case of `CSc1ccc(C(=O)NCC2(N3CCOCC3)CCCCC2)cc1`, the inhibition (reported as % activation of signal) was inactive: -0.14%.
As for `CCN1CCC(Nc2ccc(Cl)cc2)CC1`, the inhibition (reported as % activation of signal) is inactive: 0.88%.
With `N#CC1(Nc2ccccc2)CCN(CCc2ccccc2)CC1`, the inhibition (reported as % activation of signal) is inactive: 0.61%.
For `O=c1[nH]c2ccccc2n1C1CCN(C(c2ccccc2OC(F)(F)F)c2nnnn2C2CCCC2)CC1` (stereo not given), the inhibition (reported as % activation of signal) was inactive: -10.1%.
In the case of `CC(C)(C)n1nnnc1C(c1ccccc1OC(F)(F)F)N1CCC(n2c(=O)[nH]c3ccccc32)CC1` (stereo not given), the inhibition (reported as % activation of signal) was inactive: -15.5%.
As to `O=C(NCC1(N2CCCCC2)CCCCC1)c1ccc(OC(F)F)cc1`, the inhibition (reported as % activation of signal) was inactive: -2.94%.
Regarding `Cc1ccc(C(=O)NCC2(N(C)C)CCCCC2)o1`, the inhibition (reported as % activation of signal) is inactive: 0.69%.
As to `CCCOc1ccc(C(=O)NCC2(N(C)C)CCCCC2)cc1OC`, the inhibition (reported as % activation of signal) was inactive: 0.32%.
In the case of `COc1ccc(C(c2nnnn2C2CCCC2)N2CCC(n3c(=O)[nH]c4ccccc43)CC2)cc1` (stereo not given), the inhibition (reported as % activation of signal) is inactive: -1.16%.
Regarding `O=C(NCC1(N2CCCCC2)CCCCC1)c1cncc(Br)c1`, the inhibition (reported as % activation of signal) is inactive: -0.37%.
In the case of `CN1CCC(Nc2cccc(F)c2)CC1`, the inhibition (reported as % activation of signal) is inactive: -0.13%.
On to `CCCCn1nnnc1C(c1ccnc2ccccc12)N1CCC(n2c(=O)[nH]c3ccccc32)CC1` (stereo not given), for which the inhibition (reported as % activation of signal) is inactive: -7.24%.
For `COc1cc(OC)c(C(=O)NCC2(N(C)C)CCCCC2)cc1OC` the value was inactive: -0.63%; for `CCC(c1nnnn1C(C)(C)C)N1CCC(n2c(=O)[nH]c3ccccc32)CC1` (stereo not given), inactive: -0.49%.
With `O=C(NCC1(N2CCOCC2)CCCCC1)c1cc(F)c(F)cc1Cl`, the inhibition (reported as % activation of signal) was inactive: 6.04%.
For `COc1ccc(CN(CCCl)CCCl)cc1Cl` the value was inactive: -9.87%.
As for `CN(C)c1cccc(C(=O)NCC2(N3CCCCC3)CCCCC2)c1`, the inhibition (reported as % activation of signal) was inactive: 7.14%.
Take `CCCCn1nnnc1C(c1ccccc1OC(F)(F)F)N1CCC(n2c(=O)[nH]c3ccccc32)CC1` (stereo not given): the inhibition (reported as % activation of signal) is inactive: -20.5%.
For `CC(C)c1ccc(NC2CCN(C(=O)OC(C)(C)C)CC2)cc1` the value was inactive: -0.53%; for `CCCCn1nnnc1C(c1cccc(OC)c1OC)N1CCC(n2c(=O)[nH]c3ccccc32)CC1` (stereo not given), inactive: -6.07%; for `O=C(OC1CN2CCC1CC2)C1c2ccccc2C=Cc2ccccc21` (stereo not given), inactive: 0.18%.
For the compound `O=c1[nH]c2ccccc2n1C1CCN(C(c2cccs2)c2nnnn2C2CCCC2)CC1` (stereo not given), the inhibition (reported as % activation of signal) is inactive: 0.96%.
For `N/C(=N\O)c1c(N)no[n+]1[O-]`, the inhibition (reported as % activation of signal) is inactive: 1.93%.
For the compound `COc1cccc(C(c2nnnn2C(C)(C)C)N2CCC(n3c(=O)[nH]c4ccccc43)CC2)c1OC` (stereo not given), the inhibition (reported as % activation of signal) was inactive: -3.71%.
As for `CCOC(=O)N1CCC(Nc2ccc(C)cc2)CC1`, the inhibition (reported as % activation of signal) is inactive: -0.66%.
Turning to `COc1ccc(C(=O)NCC2(N3CCOCC3)CCCCC2)cc1OC`, the inhibition (reported as % activation of signal) is inactive: 2.3%.
With `O=c1[nH]c2ccccc2n1C1CCN(C(c2ccnc3ccccc23)c2nnnn2C2CCCC2)CC1` (stereo not given), the inhibition (reported as % activation of signal) was inactive: -13.2%.
As to `O=c1[nH]c2ccccc2n1C1CCN(C(c2cccs2)c2nnnn2C2CCCCC2)CC1` (stereo not given), the inhibition (reported as % activation of signal) is inactive: -4.48%.
Regarding `O=C(NCC1(N2CCOCC2)CCCCC1)c1cc(Br)ccc1Cl`, the inhibition (reported as % activation of signal) was inactive: 1.46%.
Regarding `CCCCn1nnnc1C(c1ccccc1)N1CCC(n2c(=O)[nH]c3ccccc32)CC1` (stereo not given), the inhibition (reported as % activation of signal) was inactive: -0.94%.
For `COc1cc(C(=O)NCC2(N3CCOCC3)CCCCC2)cc(OC)c1C` the value was inactive: 6.77%; for `CC(C)(C)n1nnnc1C(c1cccc2ccccc12)N1CCC(n2c(=O)[nH]c3ccccc32)CC1` (stereo not given), inactive: -20%.
As for `c1ccc(CN2CCC(Nc3ccccc3)CC2)cc1`, the figure is inactive: -1.12%; as for `Cc1cc(N(CCCl)CCCl)ccc1C=O`, inactive: -2.07%.
As for `O=c1[nH]c2ccccc2n1C1CCN(C(c2ccccc2)c2nnnn2C2CCCC2)CC1` (stereo not given), the figure is inactive: -5.03%; as for `CCCN1CCC(Nc2cc(OC)cc(OC)c2)CC1`, inactive: -5.96%; as for `CN(C)C1(CNC(=O)c2cccc(C#N)c2)CCCCC1`, inactive: 1.4%.
Turning to `CC(C)(C)OC(=O)N1CCC(N(C(=O)c2ccccc2)c2ccc(Cl)cc2)CC1`, the inhibition (reported as % activation of signal) is inactive: 3.16%.
With `N#Cc1ccc(C(=O)NCC2(N3CCCCC3)CCCCC2)cc1`, the inhibition (reported as % activation of signal) was inactive: 0.02%.
For `O=C(NCC1(N2CCCCC2)CCCCC1)c1ccco1`, the inhibition (reported as % activation of signal) was inactive: 3.15%.
For `Cn1c(=O)[nH]cc(N(CCCl)CCCl)c1=O` the value was inactive: -2.3%.
For `CN(C)c1ccc(C(=O)NCC2(N3CCCCC3)CCCCC2)cc1` the value was inactive: -2.74%.
For the compound `Cc1ccccc1NC1(C#N)CCN(Cc2ccccc2)CC1`, the inhibition (reported as % activation of signal) is inactive: -6.37%.
For the compound `CC(C)(C)n1nnnc1C(c1ccnc2ccccc12)N1CCC(n2c(=O)[nH]c3ccccc32)CC1` (stereo not given), the inhibition (reported as % activation of signal) is inactive: 3.03%.
